# Measurements as given in patent US20250026765A1, “SPIROHETEROCYCLE DERIVATIVE HAVING SEROTONIN RECEPTOR BINDING ACTIVITY” (Shionogi & Co., Ltd., priority 2021, published 2025).
# Chains of the proteins cited; added tags and fusions are not shown. Residues count along the entry.
# UniProt P28335, 33-458 limits assumed: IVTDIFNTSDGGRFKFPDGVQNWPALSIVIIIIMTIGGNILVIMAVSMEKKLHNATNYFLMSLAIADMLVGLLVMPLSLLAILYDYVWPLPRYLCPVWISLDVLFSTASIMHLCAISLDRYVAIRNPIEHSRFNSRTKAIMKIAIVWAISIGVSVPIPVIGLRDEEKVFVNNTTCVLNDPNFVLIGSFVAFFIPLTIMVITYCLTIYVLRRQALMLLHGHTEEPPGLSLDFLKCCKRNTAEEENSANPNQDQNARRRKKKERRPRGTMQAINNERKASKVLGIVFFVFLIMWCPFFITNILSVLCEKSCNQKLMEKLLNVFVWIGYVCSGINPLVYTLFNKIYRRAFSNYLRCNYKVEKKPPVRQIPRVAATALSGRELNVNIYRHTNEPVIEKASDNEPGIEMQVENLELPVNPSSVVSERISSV
# UniProt P28223, whole entry: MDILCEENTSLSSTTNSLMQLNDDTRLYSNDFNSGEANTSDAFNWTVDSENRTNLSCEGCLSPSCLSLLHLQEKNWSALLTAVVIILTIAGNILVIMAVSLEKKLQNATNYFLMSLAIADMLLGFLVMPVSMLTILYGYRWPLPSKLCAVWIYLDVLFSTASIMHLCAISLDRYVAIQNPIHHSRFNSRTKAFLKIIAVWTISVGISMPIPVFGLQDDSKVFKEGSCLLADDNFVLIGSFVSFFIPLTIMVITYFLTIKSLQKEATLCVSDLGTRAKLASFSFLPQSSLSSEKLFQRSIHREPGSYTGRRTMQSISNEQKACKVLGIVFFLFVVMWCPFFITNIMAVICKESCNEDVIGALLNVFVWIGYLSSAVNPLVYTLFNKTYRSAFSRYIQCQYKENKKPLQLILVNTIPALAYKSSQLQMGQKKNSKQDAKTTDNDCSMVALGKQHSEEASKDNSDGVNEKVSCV
# Legend:
# [1] = biological target: human recombinant 5-HT2C receptor (Homo sapiens (Human), UniProt P28335); assay: 5-HT2C receptor binding inhibition test ([3H]-Mesulergine); conditions: read-out: h-5-HT2C Ki, Jump-In HEK cell membrane, 37° C. 2 hours
# Procedure: Test Example 2: 5-HT2C Receptor Binding Inhibition Test
# (§1) (Each Experimental Condition)
# Cell membrane: 0.5 μg of Jump-In HEK cell membrane (expressing human recombinant 5-HT2C receptor) per well
# (§2) Assay buffer: Tris-HCl 50 mmol/L (pH 7.4) containing NaCl 120 mmol/L, MgCl2·6H2O 1 mmol/L, KCl 5 mmol/L, 0.1% BSA and CaCl2 2 mmol/L
# Radioactive ligand: [^3H]-Mesulergine with a final concentration of around Kd value calculated by the following method
# Non-specific ligand: Serotonin HCl with a final concentration of […]
# (§3) The Kd value is calculated when the lot of cell membrane is changed. […] The radioactivity of [^3H]-Mesulergine bound to the 5-HT2C receptor is measured using Microbeta2 (PerkinElmer) at a measurement time of 1 min/well. The Saturation curve is drawn from the measured value, and the Kd value is calculated from the slope of the Scatchard Plot. […]
# (§4) In advance, 0.5 μL of the compound solution dissolved in DMSO is dispensed into a microplate, and the cell membrane and the hot ligand are diluted with Assay buffer, respectively. […] The radioactivity of [^3H]-Mesulergine bound to the 5-HT2C receptor is measured using Microbeta2 (PerkinElmer) at a measurement time of 1 min/well. […] Finally, the Ki value is calculated from the dose-response curve.
# (§5) (The binding activity of the compound according to the present invention is calculated from the following binding inhibition rate (%).) […]
# [2] = biological target: human recombinant 5-HT2A receptor (Homo sapiens (Human), UniProt P28223); assay: 5-HT2A receptor binding inhibition test ([3H]-Ketanserin); conditions: read-out: h-5-HT2A Ki, Jump-In HEK cell membrane, 25° C. 1.5 hours
# Procedure: Test Example 1: 5-HT2A Receptor Binding Inhibition Test
# as §1
# Cell membrane: 15 μg of Jump-In HEK cell membrane (expressing human recombinant 5-HT2A receptor) per well
# as §2
# Radioactive ligand: [^3H]-Ketanserin with a final concentration of around Kd value calculated by the following method
# Non-specific ligand: Serotonin HCl with a final concentration of 500 μmol/L
# as §3, with “[^3H]-Ketanserin” for “[^3H]-Mesulergine”, “5-HT2A” for “5-HT2C”
# as §4, with “[^3H]-Ketanserin” for “[^3H]-Mesulergine”, “5-HT2A” for “5-HT2C”
# as §5
smiles,measurement,setting,value
Cc1nc(CN(Cc2nc3cc(Br)ccc3o2)C2=NOC3(CCN(C)CC3)N2)co1,Ki,[1],< 0.01 µM
same,Ki,[2],< 0.01 µM
